How the values were obtained:
Assay type in all cases: cell-based
mNaV1.7 WT = target: T1, mNaV1.7 WT (Mus musculus, UniProt Q62205); test: Automated whole-cell patch-clamp, wild type mNaV1.7; conditions: HEK293 cells expressing mNaV1.7, QPatch, mean ± SEM
T1 construct: expressed in transfected cells; host or cells: HEK293 (gift of Prof Irina Vetter)
Method: (§1) Human embryonic kidney 293 (HEK293) cells stably expressing recombinant hNaV1.2, hNaV1.3 and hNaV1.7 and the β1 auxiliary subunit (Scottish Biomedical Drug Discovery, Glasgow, UK) were cultured in Minimal Essential medium (MEM) (Sigma-Aldrich, MO, United States) supplemented with 10% v/v FBS-New Zealand origin (Assay Matrix), 2 mM L-glutamine and selection antibiotics as per manufacturer’s recommendation. The HEK293 cells heterologously expressing mNaV1.7 and F813G-mNaV1.7 were generously provided by Prof Irina Vetter and were cultured in Minimal Essential medium (MEM) (Sigma-Aldrich, MO, United States) supplemented with 10% v/v FBS-New Zealand origin (Assay Matrix), 2 mM L-glutamine and hygromycin 100 μg/mL.
(§2) NaV channel currents from HEK293 cells stably expressing NaV subtypes and the β1 auxiliary subunit were recorded using an automated whole-cell patch clamp system QPatch 16X (Sophion Bioscience A/S, Ballerup, Denmark). […]
(§3) The experimental data were analysed using QPatch Assay software v5.6.4 and GraphPad Prism 7.0 using a four-parameter Hill equation [Y = Bottom + (Top—Bottom)/(1 + 10^(Log IC50—X)* Hillslope)] to fit concentration response curves by non-linear regression analysis and Student’s t-test. […]

The chains behind the UniProt entries cited, without tags or fusion partners.
UniProt Q62205, whole entry: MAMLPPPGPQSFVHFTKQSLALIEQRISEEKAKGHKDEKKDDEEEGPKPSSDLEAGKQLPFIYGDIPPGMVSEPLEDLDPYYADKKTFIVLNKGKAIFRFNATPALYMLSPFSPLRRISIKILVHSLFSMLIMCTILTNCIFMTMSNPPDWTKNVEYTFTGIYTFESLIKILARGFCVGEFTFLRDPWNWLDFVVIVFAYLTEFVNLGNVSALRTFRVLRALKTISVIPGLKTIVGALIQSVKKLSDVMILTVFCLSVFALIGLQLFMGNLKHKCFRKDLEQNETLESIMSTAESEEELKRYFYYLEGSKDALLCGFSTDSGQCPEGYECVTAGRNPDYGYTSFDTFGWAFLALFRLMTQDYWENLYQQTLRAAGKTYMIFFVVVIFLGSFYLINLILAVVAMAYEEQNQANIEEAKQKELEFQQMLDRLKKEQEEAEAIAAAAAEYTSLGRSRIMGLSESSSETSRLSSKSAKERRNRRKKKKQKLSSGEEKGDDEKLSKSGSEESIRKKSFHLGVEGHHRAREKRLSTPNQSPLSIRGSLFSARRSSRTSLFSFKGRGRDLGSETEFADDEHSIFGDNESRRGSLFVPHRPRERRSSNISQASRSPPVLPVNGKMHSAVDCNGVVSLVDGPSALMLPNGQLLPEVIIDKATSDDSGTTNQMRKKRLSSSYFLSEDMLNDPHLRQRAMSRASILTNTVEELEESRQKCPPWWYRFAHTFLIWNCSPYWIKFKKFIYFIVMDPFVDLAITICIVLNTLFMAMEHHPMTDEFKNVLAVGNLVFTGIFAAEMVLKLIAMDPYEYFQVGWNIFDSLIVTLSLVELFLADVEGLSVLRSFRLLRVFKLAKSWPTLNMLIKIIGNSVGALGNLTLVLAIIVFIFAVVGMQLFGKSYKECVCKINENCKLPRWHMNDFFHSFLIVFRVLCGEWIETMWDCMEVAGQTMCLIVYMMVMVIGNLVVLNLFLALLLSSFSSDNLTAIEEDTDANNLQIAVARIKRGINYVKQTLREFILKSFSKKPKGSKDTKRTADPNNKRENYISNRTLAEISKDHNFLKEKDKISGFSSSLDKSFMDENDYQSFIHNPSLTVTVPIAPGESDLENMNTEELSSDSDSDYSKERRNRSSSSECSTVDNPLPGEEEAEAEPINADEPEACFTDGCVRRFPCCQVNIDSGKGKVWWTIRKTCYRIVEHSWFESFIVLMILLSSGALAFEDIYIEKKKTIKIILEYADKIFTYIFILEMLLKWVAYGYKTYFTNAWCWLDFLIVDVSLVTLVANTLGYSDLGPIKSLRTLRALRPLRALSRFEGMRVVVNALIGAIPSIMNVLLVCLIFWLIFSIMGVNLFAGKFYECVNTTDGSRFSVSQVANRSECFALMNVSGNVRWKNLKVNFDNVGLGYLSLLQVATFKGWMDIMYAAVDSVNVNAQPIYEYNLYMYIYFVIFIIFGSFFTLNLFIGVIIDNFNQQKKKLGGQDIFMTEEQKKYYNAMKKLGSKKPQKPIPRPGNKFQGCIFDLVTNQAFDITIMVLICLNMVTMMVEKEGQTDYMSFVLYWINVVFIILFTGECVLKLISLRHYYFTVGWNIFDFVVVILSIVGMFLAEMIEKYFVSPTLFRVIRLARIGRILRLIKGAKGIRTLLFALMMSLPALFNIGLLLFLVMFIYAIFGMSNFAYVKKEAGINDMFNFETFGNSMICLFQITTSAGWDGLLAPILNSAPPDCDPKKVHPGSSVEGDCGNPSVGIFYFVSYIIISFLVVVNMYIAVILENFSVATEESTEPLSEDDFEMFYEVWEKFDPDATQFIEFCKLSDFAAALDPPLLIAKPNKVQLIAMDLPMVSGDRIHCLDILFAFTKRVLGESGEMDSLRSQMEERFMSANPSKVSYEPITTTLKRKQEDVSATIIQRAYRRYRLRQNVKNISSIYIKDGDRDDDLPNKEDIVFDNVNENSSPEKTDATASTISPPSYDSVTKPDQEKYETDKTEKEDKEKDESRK
UniProt Q99250, whole entry: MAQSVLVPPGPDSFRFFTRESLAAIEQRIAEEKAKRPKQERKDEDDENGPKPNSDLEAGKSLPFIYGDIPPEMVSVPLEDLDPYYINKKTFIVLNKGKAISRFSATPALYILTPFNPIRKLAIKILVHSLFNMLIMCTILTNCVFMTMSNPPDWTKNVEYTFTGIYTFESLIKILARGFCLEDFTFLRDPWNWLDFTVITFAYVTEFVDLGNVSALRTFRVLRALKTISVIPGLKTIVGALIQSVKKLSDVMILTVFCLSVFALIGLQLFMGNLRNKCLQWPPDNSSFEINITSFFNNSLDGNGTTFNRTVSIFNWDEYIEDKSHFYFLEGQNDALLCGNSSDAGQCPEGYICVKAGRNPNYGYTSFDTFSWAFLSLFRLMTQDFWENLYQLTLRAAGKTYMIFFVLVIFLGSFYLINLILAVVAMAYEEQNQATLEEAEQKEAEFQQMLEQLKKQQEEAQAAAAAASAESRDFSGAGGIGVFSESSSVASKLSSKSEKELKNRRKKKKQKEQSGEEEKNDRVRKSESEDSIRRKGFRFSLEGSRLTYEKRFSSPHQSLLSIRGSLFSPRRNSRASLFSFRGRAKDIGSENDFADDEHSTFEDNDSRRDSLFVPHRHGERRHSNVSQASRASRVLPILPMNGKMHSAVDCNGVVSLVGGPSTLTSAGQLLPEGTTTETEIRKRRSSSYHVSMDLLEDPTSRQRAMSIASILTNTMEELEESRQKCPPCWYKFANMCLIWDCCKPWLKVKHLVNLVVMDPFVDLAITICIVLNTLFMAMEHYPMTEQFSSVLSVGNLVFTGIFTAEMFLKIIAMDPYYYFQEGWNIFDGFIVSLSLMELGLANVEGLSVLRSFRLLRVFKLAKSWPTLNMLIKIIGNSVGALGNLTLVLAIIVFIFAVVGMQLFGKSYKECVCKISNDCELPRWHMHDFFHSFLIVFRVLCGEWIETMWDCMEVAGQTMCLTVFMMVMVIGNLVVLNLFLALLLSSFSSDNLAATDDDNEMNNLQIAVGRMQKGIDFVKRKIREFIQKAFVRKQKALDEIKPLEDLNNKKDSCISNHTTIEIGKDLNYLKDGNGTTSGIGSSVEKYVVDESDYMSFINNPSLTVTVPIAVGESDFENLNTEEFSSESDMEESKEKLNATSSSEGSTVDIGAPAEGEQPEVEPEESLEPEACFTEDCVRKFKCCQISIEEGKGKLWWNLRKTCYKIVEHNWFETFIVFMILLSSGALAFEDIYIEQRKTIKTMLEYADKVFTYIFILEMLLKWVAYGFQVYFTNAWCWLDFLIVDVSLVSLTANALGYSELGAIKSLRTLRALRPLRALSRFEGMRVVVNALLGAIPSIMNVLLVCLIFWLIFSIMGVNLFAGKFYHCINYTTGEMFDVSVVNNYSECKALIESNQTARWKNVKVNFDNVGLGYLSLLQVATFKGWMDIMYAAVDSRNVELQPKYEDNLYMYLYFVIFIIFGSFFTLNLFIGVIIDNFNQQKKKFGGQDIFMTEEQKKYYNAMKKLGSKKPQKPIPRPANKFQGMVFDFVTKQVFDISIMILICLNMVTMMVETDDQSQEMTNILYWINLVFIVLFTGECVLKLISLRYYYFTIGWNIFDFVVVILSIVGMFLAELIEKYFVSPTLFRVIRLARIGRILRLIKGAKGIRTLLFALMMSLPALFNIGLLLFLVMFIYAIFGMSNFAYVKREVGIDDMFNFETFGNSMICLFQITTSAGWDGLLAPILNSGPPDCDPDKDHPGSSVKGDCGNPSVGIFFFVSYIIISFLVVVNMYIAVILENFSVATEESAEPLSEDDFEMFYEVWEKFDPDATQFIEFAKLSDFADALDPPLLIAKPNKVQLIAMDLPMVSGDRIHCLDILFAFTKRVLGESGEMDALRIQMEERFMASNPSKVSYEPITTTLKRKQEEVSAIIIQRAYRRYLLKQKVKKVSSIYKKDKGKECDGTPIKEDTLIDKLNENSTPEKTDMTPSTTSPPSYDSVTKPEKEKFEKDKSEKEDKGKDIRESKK
UniProt Q9NY46, whole entry: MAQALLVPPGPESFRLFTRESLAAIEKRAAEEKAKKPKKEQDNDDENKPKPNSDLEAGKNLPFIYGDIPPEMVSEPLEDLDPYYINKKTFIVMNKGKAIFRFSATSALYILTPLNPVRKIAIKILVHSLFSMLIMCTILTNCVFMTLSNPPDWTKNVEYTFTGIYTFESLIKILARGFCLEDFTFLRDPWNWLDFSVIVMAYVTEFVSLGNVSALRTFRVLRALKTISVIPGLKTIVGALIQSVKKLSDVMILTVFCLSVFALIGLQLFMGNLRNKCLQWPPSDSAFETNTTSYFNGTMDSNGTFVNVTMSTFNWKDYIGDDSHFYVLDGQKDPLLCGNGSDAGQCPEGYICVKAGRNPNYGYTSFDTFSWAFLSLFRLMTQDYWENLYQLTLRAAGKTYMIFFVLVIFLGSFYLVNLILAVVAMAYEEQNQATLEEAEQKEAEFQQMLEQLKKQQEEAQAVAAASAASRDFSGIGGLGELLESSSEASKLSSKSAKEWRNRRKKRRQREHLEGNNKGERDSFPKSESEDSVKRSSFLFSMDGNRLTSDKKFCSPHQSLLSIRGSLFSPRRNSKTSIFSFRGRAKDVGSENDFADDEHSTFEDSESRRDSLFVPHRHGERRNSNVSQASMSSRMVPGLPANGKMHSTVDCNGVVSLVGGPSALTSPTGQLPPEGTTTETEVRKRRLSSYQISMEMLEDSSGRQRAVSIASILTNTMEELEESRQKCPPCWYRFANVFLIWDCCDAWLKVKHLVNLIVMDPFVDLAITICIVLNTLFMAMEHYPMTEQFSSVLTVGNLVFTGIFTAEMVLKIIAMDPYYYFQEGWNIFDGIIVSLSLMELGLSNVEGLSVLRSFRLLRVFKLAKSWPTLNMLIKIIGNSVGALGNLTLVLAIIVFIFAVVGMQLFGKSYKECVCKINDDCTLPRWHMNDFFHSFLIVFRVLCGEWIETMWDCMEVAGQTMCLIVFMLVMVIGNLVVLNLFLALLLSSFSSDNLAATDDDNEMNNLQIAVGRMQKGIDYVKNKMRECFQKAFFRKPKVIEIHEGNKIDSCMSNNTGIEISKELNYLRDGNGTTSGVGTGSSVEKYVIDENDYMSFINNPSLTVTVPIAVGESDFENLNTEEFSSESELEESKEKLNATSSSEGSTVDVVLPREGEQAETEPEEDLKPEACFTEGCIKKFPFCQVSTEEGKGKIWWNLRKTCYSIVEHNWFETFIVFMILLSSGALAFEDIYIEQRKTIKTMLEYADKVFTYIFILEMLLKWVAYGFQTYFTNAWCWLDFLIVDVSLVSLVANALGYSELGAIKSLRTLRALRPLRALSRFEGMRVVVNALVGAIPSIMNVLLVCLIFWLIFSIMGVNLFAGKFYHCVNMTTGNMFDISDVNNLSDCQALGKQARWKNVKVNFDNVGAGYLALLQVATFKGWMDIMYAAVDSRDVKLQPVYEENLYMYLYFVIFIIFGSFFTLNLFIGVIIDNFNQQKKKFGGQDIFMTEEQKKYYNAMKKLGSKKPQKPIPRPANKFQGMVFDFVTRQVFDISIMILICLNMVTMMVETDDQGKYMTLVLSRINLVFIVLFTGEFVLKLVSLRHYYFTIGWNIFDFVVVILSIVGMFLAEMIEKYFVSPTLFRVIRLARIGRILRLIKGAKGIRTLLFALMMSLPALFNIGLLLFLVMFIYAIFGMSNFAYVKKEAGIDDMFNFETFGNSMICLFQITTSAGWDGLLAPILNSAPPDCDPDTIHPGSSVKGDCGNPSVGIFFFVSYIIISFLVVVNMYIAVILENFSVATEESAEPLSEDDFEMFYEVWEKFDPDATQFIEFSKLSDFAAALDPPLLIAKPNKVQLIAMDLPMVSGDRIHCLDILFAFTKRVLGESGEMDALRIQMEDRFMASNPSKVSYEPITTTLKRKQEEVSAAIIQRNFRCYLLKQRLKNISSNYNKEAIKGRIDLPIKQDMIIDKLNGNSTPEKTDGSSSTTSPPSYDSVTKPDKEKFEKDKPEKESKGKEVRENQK

F823G-mNaV1.7 = target: T2, F823G-mNaV1.7 (Mus musculus, UniProt Q62205, F823G); test: Automated whole-cell patch-clamp, F823G-mNaV1.7 variant
T2 construct: expressed in transfected cells; host or cells: HEK293 (gift of Prof Irina Vetter)
Method: as §1, §2, §3

hNaV1.2 = target: T3, hNaV1.2 (Homo sapiens, UniProt Q99250); test: Automated whole-cell patch-clamp (QPatch 16X), hNaV1.2; conditions: HEK293 cells expressing hNaV1.2 + β1 subunit, holding −80 mV, step to 0 mV, peptide incubated 2 min, 0.1% BSA, mean, SEM and n (2-7)
T3 construct: host or cells: HEK293
Method: as §1, §2, §3

hNaV1.3 = target: T4, hNaV1.3 (Homo sapiens, UniProt Q9NY46); test: Automated whole-cell patch-clamp (QPatch 16X), hNaV1.3; conditions: HEK293 cells expressing hNaV1.3 + β1 subunit, holding −80 mV, step to 0 mV, peptide incubated 2 min, 0.1% BSA, mean, SEM and n (3-12)
T4 construct: host or cells: HEK293
Method: as §1, §2, §3

hNaV1.7 = target: T5, hNaV1.7 (Homo sapiens, UniProt Q15858); test: Automated whole-cell patch-clamp (QPatch 16X), hNaV1.7; conditions: HEK293 cells expressing hNaV1.7 + β1 subunit, holding −80 mV, step to 0 mV, peptide incubated 2 min, 0.1% BSA, mean, SEM and n (3-9)
T5 construct: host or cells: HEK293
Method: as §1, §2, §3

SMILES	IC50 (mNaV1.7 WT)	Decrease of mNaV1.7 sensitivity by F823G mutation (F823G-mNaV1.7; F823G vs wild type mNaV1.7)	IC50 (F823G-mNaV1.7; HEK293 cells expressing F823G-mNaV1.7 (F823 corresponds to F813 in hNaV1.7), QPatch, mean ± SEM, SEM)	IC50 (hNaV1.2)	IC50 (hNaV1.3)	IC50 (hNaV1.7)
CC(C)C[C@H](NC(=O)[C@H](CC(=O)O)NC(=O)[C@H](Cc1ccc(O)cc1)NC(=O)[C@H](CCCNC(=N)N)NC(=O)[C@@H]1CSSC[C@@H]2NC(=O)[C@H](CCCCN)NC(=O)[C@H](CC(N)=O)NC(=O)[C@H](CC(N)=O)NC(=O)[C@H](CC(N)=O)NC(=O)[C@@H]3CCCN3C(=O)[C@H](CC(=O)O)NC(=O)[C@@H]3CSSC[C@H](NC(=O)[C@H](C(C)C)NC(=O)[C@H](Cc4ccc(O)cc4)NC(=O)CNC(=O)[C@H](CCC(=O)O)NC(=O)[C@H](CSSC[C@H](NC(=O)[C@H](CC(=O)O)NC(=O)CN)C(=O)N[C@@H](CC(C)C)C(=O)NCC(=O)N[C@@H](Cc4c[nH]c5ccccc45)C(=O)N[C@@H](Cc4ccccc4)C(=O)N[C@@H](CO)C(=O)NCC(=O)N3)NC2=O)C(=O)N[C@@H](Cc2c[nH]cn2)C(=O)N[C@@H](Cc2c[nH]c3ccccc23)C(=O)N[C@@H](CCCCN)C(=O)N[C@@H](Cc2ccc(O)cc2)C(=O)N2CCC[C@H]2C(=O)N[C@@H](Cc2c[nH]c3ccccc23)C(=O)N1)C(=O)O [rSsp1a]	0.208 ± 0.018 µM	~2.5 fold	0.492 ± 0.05 µM			
CC(C)C[C@@H]1NC(=O)[C@@H](NC(=O)[C@H](CC(=O)O)NC(=O)CN)CSSC[C@@H]2NC(=O)[C@@H]3CSSC[C@@H](C(=O)N[C@@H](CCCNC(=N)N)C(=O)N[C@@H](Cc4ccc(O)cc4)C(=O)N[C@@H](CC(=O)O)C(=O)N[C@@H](CC(C)C)C(=O)NCC(=O)N[C@@H](CCCCN)C(=O)O)NC(=O)[C@H](Cc4c[nH]c5ccccc45)NC(=O)[C@@H]4CCCN4C(=O)[C@H](Cc4ccc(O)cc4)NC(=O)[C@H](CCCCN)NC(=O)[C@H](Cc4c[nH]c5ccccc45)NC(=O)[C@H](Cc4c[nH]cn4)NC(=O)[C@H](CSSC[C@H](NC(=O)CNC(=O)[C@H](CO)NC(=O)[C@H](Cc4ccccc4)NC(=O)[C@H](Cc4c[nH]c5ccccc45)NC(=O)CNC1=O)C(=O)N[C@@H](CC(=O)O)C(=O)N1CCC[C@H]1C(=O)N[C@@H](CC(N)=O)C(=O)N[C@@H](CC(N)=O)C(=O)N[C@@H](CC(N)=O)C(=O)N[C@@H](CCCCN)C(=O)N3)NC(=O)[C@H](C(C)C)NC(=O)[C@H](Cc1ccc(O)cc1)NC(=O)CNC(=O)[C@H](CCC(=O)O)NC2=O [rSsp1a-GK]				0.426 µM	0.654 µM	0.18 µM
CC(C)C[C@H](NC(=O)[C@H](CC(C)C)NC(=O)[C@H](CC(C)C)NC(=O)[C@H](CC(=O)O)NC(=O)[C@H](Cc1ccc(O)cc1)NC(=O)[C@H](CCCNC(=N)N)NC(=O)[C@@H]1CSSC[C@@H]2NC(=O)[C@H](CCCCN)NC(=O)[C@H](CC(N)=O)NC(=O)[C@H](CC(N)=O)NC(=O)[C@H](CC(N)=O)NC(=O)[C@@H]3CCCN3C(=O)[C@H](CC(=O)O)NC(=O)[C@@H]3CSSC[C@H](NC(=O)[C@H](C(C)C)NC(=O)[C@H](Cc4ccc(O)cc4)NC(=O)CNC(=O)[C@H](CCC(=O)O)NC(=O)[C@H](CSSC[C@H](NC(=O)[C@H](CC(=O)O)NC(=O)CN)C(=O)N[C@@H](CC(C)C)C(=O)NCC(=O)N[C@@H](Cc4c[nH]c5ccccc45)C(=O)N[C@@H](Cc4ccccc4)C(=O)N[C@@H](CO)C(=O)NCC(=O)N3)NC2=O)C(=O)N[C@@H](Cc2c[nH]cn2)C(=O)N[C@@H](Cc2c[nH]c3ccccc23)C(=O)N[C@@H](CCCCN)C(=O)N[C@@H](Cc2c[nH]cn2)C(=O)N2CCC[C@H]2C(=O)N[C@@H](Cc2c[nH]c3ccccc23)C(=O)N1)C(=O)O [Y26H-LL]				0.41 µM	1.63 µM	0.175 µM

— article PMC10682951, “Structure-function and rational design of a spider toxin Ssp1a at human voltage-gated sodium channel subtypes” (Frontiers in Pharmacology, 2023)
